Experimental data reported in patent EP4671280A1 (Nanjing Leads Biolabs Co., Ltd., dated 2025).

B1: Antibody 23-H4F3 (murine chimeric anti-Nectin-4 antibody) (antibody, human IgG1, kappa, V domains shown)
VH: QVQLQQSGPELVKPGASVRISCKASGYTFTSYYIHWVKQRPGQGLEWIGWIYPGNVNTKYNEKFKGKATLTADKSSSTAYMQLISLTSEDSAVYFCARGVYYFDFWGQGTTLTVSS
VL: SIVMTQTPKFLLVSAGDRVTLTCKASQSVSNDVAWFQQKPGQSPKLLIYYALNRYTGVPDRFTGSGYGTDFTFTISTVQAEDLAVYFCQQDYSSPYTFGGGTKLEIKR
notes: Mouse variable regions on human IgG1 / human kappa constant regions, expressed in ExpiCHO-S cells; also called chimeric antibody 23-H4F3
B2: Antibody 6-B9B6 (murine chimeric anti-Nectin-4 antibody) (antibody, human IgG1, kappa, V domains shown)
VH: EVHLVESGGGLVQPGGSLKLSCAASGFTFSSYGMSWVRQTPDKRLELVATINNIGGSTFPPDSVKGRFTVSRDNAKNTLYLQMSSLKSEDTAMYYCARAYDYVPFAYWGQGTLVTVSA
VL: DIQMTQSSSYLSVSLGGRVTITCKASDHINNWLAWYQQKPGNAPRLLISGATSLETGVPSRFSGSGSGKDYALSIASLQTEDVATYYCQQYWSTPFTFGSGTKLEIKR
notes: Mouse variable regions on human IgG1 / human kappa constant regions

Target: T1, human Nectin-1 protein (ACRO Biosystems, Cat. No. PV1-H5223) (human, UniProt Q15223 31-334)
T1 sequence (looked up): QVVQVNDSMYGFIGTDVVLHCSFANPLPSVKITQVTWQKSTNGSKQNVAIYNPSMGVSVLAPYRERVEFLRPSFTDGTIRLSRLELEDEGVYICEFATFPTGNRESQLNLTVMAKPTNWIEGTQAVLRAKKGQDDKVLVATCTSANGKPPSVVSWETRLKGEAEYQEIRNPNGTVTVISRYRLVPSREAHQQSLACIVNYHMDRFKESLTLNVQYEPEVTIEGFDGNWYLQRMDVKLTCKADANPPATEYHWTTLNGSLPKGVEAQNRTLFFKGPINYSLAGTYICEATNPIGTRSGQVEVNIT
Test: ELISA, Nectin family protein immobilised on plate

| Binder | binding result |
| --- | --- |
| B1 | no binding |
| B2 | no binding |
